Apparent affinities of Ab-91 variants for a coronavirus HR2 peptide

All variants were tested on one target, the spike HR2 peptide PDVDLGDISGINAS (SARS-CoV-2).

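Variants in AAYL51 differ from the parent at up to three CDR positions; double and triple changes were sampled at random. The assay is AlphaSeq: two haploid yeast populations carry antibody and antigen on their surface. Pairs that bind mate more often; barcode pairs of the diploids are counted by sequencing. Each replicate has its own calibration line, from reference interactions of the BCL2 family. Mating was done three times.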

Parent: Ab-91, a human scFv built as VL, three GGGGS repeats, VH. Only the CDRs of the heavy chain vary.
VL: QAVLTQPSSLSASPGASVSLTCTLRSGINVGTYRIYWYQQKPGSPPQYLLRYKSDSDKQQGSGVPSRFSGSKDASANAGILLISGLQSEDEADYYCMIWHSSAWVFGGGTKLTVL
VH: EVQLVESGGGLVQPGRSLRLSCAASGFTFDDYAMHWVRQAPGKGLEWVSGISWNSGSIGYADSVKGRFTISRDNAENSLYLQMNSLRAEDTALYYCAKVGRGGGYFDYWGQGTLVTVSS

Each variant is given by its three heavy chain CDRs, as the data file delimits them; those of the parent are GFTFDDYAMH, GISWNSGSIGYADSVK, VGRGGGYFDY.
The read-out is the apparent dissociation constant on a log10 scale (nM): the lower, the stronger.
An entry "nd" has no value in the source: the pair was not observed among the diploids in that replicate. This suggests poor binding but is not conclusive.
Empty control strains, which show no peptide, gave a signal in 21% of pairings with library AAYL51; the median was 4.54 and 95% of these signals were weaker than 3.26. No background was subtracted. For each scFv, signals with the empty controls are counted beside the result, with their mean in brackets.

| CDR-H1 | CDR-H2 | CDR-H3 | log10 Kd (nM) by replicate | empty controls |
|---|---|---|---|---|
| GFTFDFYAMH | GISWNHGSIGYADSVK | VGTGGGYFDY | nd 2.92 nd | 0/9 |
| GFTFDNYAMH | GISQNSGSIGYADSVW | VGRGGGYFDY | 1.42 1.34 1.04 | 2/9 (4.28) |
| GFGFDDYAMH | GISWNSKSIGYADSVK | VGMGGGYFDY | 3.17 3.05 3.62 | 2/9 (4.75) |
| GFTFDDYAML | GISWNSGSSGYADSVK | VGRGGGYFLY | nd 3.93 4.91 | 2/9 (4.02) |
| KFTFDDYAMH | GMSWNKGSIGYADSVK | VGRGGGYFDY | nd nd nd | 0/9 |
| GFTCDDYAMH | GISWTSGYIGYADSVK | VGRGGGYFDY | 6.19 nd 5.20 | 3/9 (4.78) |
| GFTFDDYAMH | GISWNSLSIGYANSVK | VGRGGGYFFY | nd nd nd | 0/9 |
| GFTFDDYAMH | GIPWNSGSIGYIDSVE | VGRGGGYFDY | nd nd nd | 0/9 |
| GFTFDDYAVH | GISWNSGSIKMADSVK | VGRGGGYFDY | nd nd nd | 1/9 (2.71) |
| GFTFDDYAMH | GISWNSGSIGYADWVK | VGKGGGYFSY | nd 3.98 nd | 0/9 |
| GQTFDDYAMH | GISWNSGSIGPLDSVK | VGRGGGYFDY | nd nd 4.19 | 3/9 (4.47) |
| GFQFDDYAMH | GISWNSGDIGYADSVK | VGRGGGYFDE | 1.39 1.43 1.09 | 3/9 (4.85) |
| GFTFDDYAMH | GISWDSGSIGYADSVK | VGRGYGYFDT | nd 2.49 3.44 | 0/9 |
| GFTFDDYAMH | GISWNSAAIGYADSVK | VGRGGGYFDL | 0.99 0.96 0.22 | 5/9 (4.68) |
| GRTFDDYAMH | GISSNSGSIGYADSVK | VGRGGGYFDY | 3.67 nd nd | 2/9 (3.65) |
| GFTFDDYAMH | GISWNSGSIGYFDSVK | YGGGGGYFDY | nd nd nd | 1/9 (3.16) |
| GFTFDQYAMH | GISWNSGSIGFADSVK | VARGGGYFDY | 4.41 nd 4.50 | 1/9 (5.04) |
| GFTFDVIAMH | GITWNSGSIGYADSVK | VGRGGGYFDY | nd nd nd | 1/9 (3.01) |
| GFTFDDYMMH | GISWNSCSIGYAESVK | VGRGGGYFDY | nd nd nd | 0/9 |
| GFTFDDYAMH | SISWNSGSIGYALSVK | AGRGGGYFDY | nd nd nd | 1/9 (4.16) |
| GFTFDDYAMH | GISWNSMSIHDADSVK | VGRGGGYFDY | 5.04 6.13 nd | 0/9 |
| GWTFDDYAMH | GISWNSGSIGYADSVK | VGTGMGYFDY | nd nd nd | 0/9 |
| GFTFDDYAMH | GISWNSGSIGYADEVW | VGIGGGYFDY | 1.57 1.46 1.11 | 3/9 (5.45) |
| GMLFDDYAMH | GISWNSGSIGIADSVK | VGRGGGYFDY | nd nd nd | 1/9 (3.76) |
| GVTFNDYAMH | GGSWNSGSIGYADSVK | VGRGGGYFDY | nd 5.31 5.78 | 7/9 (4.90) |
| GFPFDDYAMH | GISWNSGSIGYADSVH | VGYGGGYFDY | 2.50 2.31 3.04 | 2/9 (4.57) |
| PFTFDDYAMH | GISWNSGSIGYADSVK | VGDGGGYFDN | nd nd nd | 0/9 |
| GFTFDDYMMH | GISWNSGSIGYADSVC | VGRGGGYQDY | nd nd nd | 1/9 (3.08) |
| GFTFDDYAMP | GISWNSGSIHYADSVK | VGRGGGYFDY | nd nd nd | 1/9 (4.20) |
| AFTFDDYKMH | GISWVSGSIGYADSVK | VGRGGGYFDY | nd nd 5.40 | 3/9 (5.41) |
| GFTFDDYAML | GISWNSGSIGYAASVK | VHRGGGYFDY | nd nd nd | 0/9 |
| GFTFDDYAMH | GISWNSGSDGYPDSVK | VGRGGGYFDD | nd 4.70 4.99 | 3/9 (3.96) |
| GFTFDDYIMN | GISWNIGSIGYADSVK | VGRGGGYFDY | nd nd nd | 0/9 |
| GFTFDDYAMH | TISWNSGSIGYARSVS | VGRGGGYFDY | 4.50 nd nd | 2/9 (4.68) |
| GFTFDDYAMH | GIVWNSGSIGYLDSVK | VGRGRGYFDY | nd nd nd | 0/9 |
| GFTFDDYAMH | GISANSGAIGYADSVK | VGRGSGYFDY | nd nd nd | 0/9 |
| GKTFDDYAMH | GISWNSGSFGYADSVK | VGRGGLYFDY | nd nd nd | 0/9 |
| GFTFDDYAMH | GISWNSGSPGYADSVK | VGRGGGTFDV | 4.67 6.51 nd | 4/9 (4.98) |
| GFTVDDYAMH | GISWNSGSIGYAASVK | VDRGGGYFDY | nd nd nd | 1/9 (3.43) |
| GFTFDDYAYH | GISWNSGSIGYADSVK | VGRGFEYFDY | nd nd nd | 1/9 (3.06) |
| GFTFDDYAMH | GISWQSGSIGYADSVK | VVRGGGIFDY | nd nd nd | 0/9 |
| GFVFDDYAMH | GISWNSGSIGYADSVH | VCRGGGYFDY | nd nd nd | 0/9 |
| GFTFDDYAMH | GIQWHSGSIGYADSVW | VGRGGGYFDY | nd 5.27 4.27 | 4/9 (4.61) |
| GFTFDDYTMH | GISWHSGSIGYADSVK | VGRGGGYFDY | nd 3.56 4.37 | 4/9 (5.22) |
| GFTWDDYAMH | GISWNSGSIGYADSVK | VGRIKGYFDY | 6.19 5.51 nd | 4/9 (4.66) |

From the list, the first 5 with no signal in any replicate:

| CDR-H1 | CDR-H2 | CDR-H3 | log10 Kd (nM) by replicate | empty controls |
|---|---|---|---|---|
| KFTFDDYAMH | GMSWNKGSIGYADSVK | VGRGGGYFDY | nd nd nd | 0/9 |
| GFTFDDYAMH | GISWNSLSIGYANSVK | VGRGGGYFFY | nd nd nd | 0/9 |
| GFTFDDYAMH | GIPWNSGSIGYIDSVE | VGRGGGYFDY | nd nd nd | 0/9 |
| GFTFDDYAVH | GISWNSGSIKMADSVK | VGRGGGYFDY | nd nd nd | 1/9 (2.71) |
| GFTFDDYAMH | GISWNSGSIGYFDSVK | YGGGGGYFDY | nd nd nd | 1/9 (3.16) |

Values reported by Engelhart et al. 2022, doi:10.1038/s41597-022-01779-4 (FLAb copy).